IC50 data for one molecule are collected here from ChEMBL document CHEMBL1138095, “From ligand to complexes: inhibition of human immunodeficiency virus type 1 integrase by beta-diketo acid metal complexes” (J Med Chem, 2006).

Assay [1] has as its target T1, Human immunodeficiency virus type 1 integrase (Human immunodeficiency virus 1, UniProt Q7ZJM1). Kind of assay: Inhibition of HIV1 integrase 3' processing activity.
The target in assay [2] is T1, Human immunodeficiency virus type 1 integrase. Kind of assay: Inhibition of HIV1 integrase strand transfer activity.
Assay [3] shares this target. Kind of assay: Inhibition of HIV1 integrase 3' processing activity in presence of exogenous cobalt ion.
Assay [4] has the same target. Kind of assay: Inhibition of HIV1 integrase strand transfer activity in presence of exogenous cobalt ion.

For orientation: IC50 means the point on the concentration scale where inhibition reaches its midpoint. For `O=C(O)C(=O)/C=C(\O)c1ccccc1`, the IC50 is over 333 µM in assay [1], 69 µM in assay [2], 82 µM in assay [3] and 80 µM in assay [4].
